According to the supplement of paper PMC6461962:

How the values were obtained:
[1] = tested on: Rhodanobacter sp. FW104-10B01
Method: (§1)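 Dose-response growth inhibition of groundwater bacterial isolates (Rhodanobacter sp. FW104-10B01, Pseudomonas fluorescens FW300-N2E2) by 80 inorganic ion salts and NTA complexes in 384-well plates at 30 °C, in several media and electron-acceptor conditions. OD600 was read at 24 h (48 h for N2E2 vs 10B01 comparisons in R2A) and normalised to water (100% growth) and 0.2 g/L chloramphenicol (0% growth) controls. IC50 was fitted with the drc R package from at least two biological replicate curves; > and < give the highest or lowest concentration screened.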

[2] = tested on: Pseudomonas fluorescens FW300-N2E2
Method: as §1

[O-][Br+2]([O-])O [Sodium bromate]
Settings | IC50 growth inhibition [mM]
[1], medium / electron acceptor: 10B01 R2A/aerobic | > 500
[1], medium / electron acceptor: 10B01 R2A/nitrate | > 500
[2], medium / electron acceptor: N2E2 Glucose/aerobic | 318
[2], medium / electron acceptor: N2E2 Glucose/aerobic 0.25xMinerals | 290
[2], medium / electron acceptor: N2E2 Glucose/aerobic (2) | 105
[2], medium / electron acceptor: N2E2 KB/aerobic | 43.8
[2], medium / electron acceptor: N2E2 LB/aerobic | 261
[2], medium / electron acceptor: N2E2 LB/aerobic (2) | 284
[2], medium / electron acceptor: N2E2 LB/nitrate | 7.77
[2], medium / electron acceptor: N2E2 Lactate/aerobic | > 500
[2], medium / electron acceptor: N2E2 R2A/aerobic | 166
